# According to PubChem BioAssay AID651635 (National Center for Advancing Translational Sciences (NCATS), 2012):
# Only a part is listed here, and it is no random draw. Records with an inconclusive call do not appear. Where a call stands in place of a potency, no number is given. The source made the active and inactive calls. Calls come from the whole dose curve; as a rule, active = well fitted cell-killing curve with a large enough effect; inconclusive = small, poorly fitted or top-dose-only effect, or effect the other way; inactive = no such curve, though single readings can be large or run the other way.
# Experiment: Viability Counterscreen for Primary qHTS for Inhibitors of ATXN expression; note: nearly all actives have a fitted effect of over 40% in size
# Conditions: S2 cells (HEK-293 line with an ATXN2-luciferase reporter) viability, CellTiter-Fluor protease fluorescence, 24 h; series mostly up to 56.7 µM
# Potency is the fitted concentration of half-maximal effect.
row,SMILES,Potency
1,c1nnnn1CCn1cnnn1,inactive
2,CC(C)C(=O)NC(Sc1ccccc1)C(Cl)(Cl)Cl (stereo unspecified),inactive
3,O=P(Nc1nccs1)(c1ccccc1)c1ccccc1,inactive
4,O=C(OC1CN2CCC1CC2)c1cccc(Cl)c1 (stereo unspecified),inactive
5,C(Cc1nn[nH]n1)Cc1nn[nH]n1,inactive
6,Nc1ccc([As](=O)(O)c2ccc([N+](=O)[O-])cc2)cc1,inactive
7,O=[As](O)(c1ccccc1)c1ccc(O)cc1,inactive
8,O=[N+]([O-])c1ncn(CCn2cnc([N+](=O)[O-])n2)n1,inactive
9,CC(=O)NC(SC(=S)N(C)C)C(Cl)(Cl)Cl (stereo unspecified),inactive
10,O=P(Nc1nc2ccccc2s1)(c1ccccc1)c1ccccc1,inactive
11,C[C@H]1OP(=O)(Oc2ccccc2)[C@H](O)[C@H](O)[C@H]1N=[N+]=[N-] (stereo partly specified),inactive
12,O=P(Nc1ccccn1)(c1ccc(Br)cc1)c1ccc(Br)cc1,inactive
13,CN(C)C1(CNC(=O)c2ccc(Cl)c(S(N)(=O)=O)c2)CCCCC1,inactive
14,COc1ccc(N)c([N+](=O)[O-])c1[N+](=O)[O-],inactive
15,CC(NC(=O)COC(=O)C(O)(c1ccccc1)c1ccccc1)c1ccccc1 (stereo unspecified),inactive
16,Cc1ccccc1OP(=O)(Nc1ccccn1)Oc1ccccc1C,inactive
17,O=c1c2cc([N+](=O)[O-])ccc2[nH]c2c([N+](=O)[O-])cc([N+](=O)[O-])cc12,active: 8.91 µM
18,CN(C)C(=O)Oc1noc2ccccc12,inactive
19,O=C(OC1CN2CCC1CC2)c1ccccc1 (stereo unspecified),inactive
20,CCC(=O)N1C2C3N(C(=O)CC)C1C1N(C(=O)CC)C(C(N1C(=O)CC)N3C(=O)CC)N2C(=O)CC,inactive
21,COC(=O)c1cc2c(s1)N=C(c1ccccc1)N(C)P2(=O)N1CCOCC1 (stereo unspecified),inactive
22,Cc1ccc(OP(=O)(Nc2ccccn2)Oc2ccc(C)cc2)cc1,inactive
23,CC(=O)NC(SC(=S)N(CC(C)C)CC(C)C)C(Cl)(Cl)Cl (stereo unspecified),inactive
24,c1ccc(-c2nn[nH]n2)c(-c2nn[nH]n2)c1,inactive
25,Cc1ccc(NP(=O)(Oc2cccc(C)c2)Oc2cccc(C)c2)nc1,inactive

row,SMILES,Potency
1,CCNC(=S)/N=C(\N)N[N+](=O)[O-],inactive
2,O=C(NC1CCS(=O)(=O)C1)NP(=S)(Oc1ccccc1)Oc1ccccc1 (stereo unspecified),inactive
3,CC(=O)Nc1ccc([As](=O)(O)O)c(O)c1,inactive
4,Cc1ccccc1CN(C)C(=O)COC(=O)C(O)(c1ccccc1)c1ccccc1,inactive
5,C[C@H]1OP(=O)(Oc2ccccc2)C[C@@H]2O[C@@H]21 (stereo partly specified),inactive
6,C[C@@H]1C=CCP(=O)(Oc2ccccc2)O1 (stereo partly specified),inactive
7,COC(=O)C1(C)COP(=O)(NCc2ccccc2)OC1 (stereo unspecified),inactive
8,CC(C)(C)C(=O)NC(Sc1ccccc1)C(Cl)(Cl)Cl (stereo unspecified),inactive
9,O=P1(Nc2nc3ccc(Cl)cc3s2)COc2ccccc2O1 (stereo unspecified),inactive
10,CCOc1ccc(C2=NCC(CBr)S2)cc1 (stereo unspecified),inactive
11,O=[N+]([O-])C1C(O)C(O)C([N+](=O)[O-])C(O)C1O (stereo unspecified),inactive
12,Oc1ccccc1CNc1ccccn1,inactive
13,O=C(NC(Sc1ccncn1)C(Cl)(Cl)Cl)c1ccccc1 (stereo unspecified),inactive
14,CC(C)CC(=O)NC(Sc1ccc(Cl)cc1)C(Cl)(Cl)Cl (stereo unspecified),inactive
15,CN1CCCC(OC(=O)C(c2ccccc2)c2ccccc2)C1 (stereo unspecified),inactive
16,CCNC(C)Cc1ccc2c(c1)OCO2 (stereo unspecified),inactive
17,Clc1ccc(Cl)c(NC2=NCC(CBr)S2)c1 (stereo unspecified),inactive
18,COc1ccccc1OP(=O)(Nc1ccc(C)cn1)Oc1ccccc1OC,inactive
19,CN(C(=O)Cc1ccc(Cl)c(Cl)c1)[C@H]1CCCC[C@H]1N1CCCC1,inactive
20,Cc1ccc(N/C(=N/P(=O)(N2CCOCC2)N2CCOCC2)N2CCOCC2)cc1,inactive
21,NC(=O)c1cc([N+](=O)[O-])cc([N+](=O)[O-])c1N,inactive
22,Nc1cccc2ccc([As](=O)(O)O)cc12,inactive
23,CCN(N=Nc1nonc1N)c1nonc1N,inactive
24,Cc1cc(SC(NC(=O)c2ccc(F)cc2)C(Cl)(Cl)Cl)ncn1 (stereo unspecified),inactive
25,CCOP(=O)(Nc1ccccc1)OCC,inactive

row,SMILES,Potency
1,Cc1ccc(NP(=O)(Oc2ccccc2F)Oc2ccccc2F)nc1,inactive
2,CN(C(=O)Cc1ccc(Cl)c(Cl)c1)[C@H]1CCCC[C@@H]1N1CCCC1,inactive
3,O=P(Nc1nc2ccc(Cl)cc2s1)(c1ccccc1)c1ccccc1,inactive
4,CN(C)P(=O)(N(C)C)n1c(Nc2ccccc2)nnc1-c1ccccc1,inactive
5,CC(=O)Nc1ccc([As](=O)(O)O)cc1,inactive
6,O=C(O)c1ccccc1[As](=O)(O)O,inactive
7,CCCC1OP(N)(=O)OCC1CC (stereo unspecified),inactive
8,O=C(O)CNc1ccc([As](=O)(O)O)cc1,inactive
9,COC(=O)C1(C)COP(=O)(Nc2ccccc2)OC1 (stereo unspecified),inactive
10,O=[N+]([O-])c1cccc(NC2=NCC(CBr)S2)c1 (stereo unspecified),inactive
11,O=[N+]([O-])c1ncn(CCn2ncnc2[N+](=O)[O-])n1,inactive
12,CC(C)(C)C(=O)NC(Sc1ccncn1)C(Cl)(Cl)Cl (stereo unspecified),inactive
13,O=C(Nc1cc([As](=O)(O)O)ccc1O)c1ccccc1,inactive
14,O=P1(N(CCCl)CCCl)OCCCS1 (stereo unspecified),inactive
15,c1cc(-c2nn[nH]n2)ccc1-c1nn[nH]n1,inactive
16,CC(C)c1nc(Nc2ccccc2)n(P(=O)(N(C)C)N(C)C)n1,inactive
17,CC(C)=N/N=C(\N)N[N+](=O)[O-],inactive
18,CCN(/C(=N/P(=O)(N1CCOCC1)N1CCOCC1)N1CCOCC1)c1ccc(OC)cc1,inactive
19,Cc1ccc(NP(=O)(Oc2ccccc2)Oc2ccccc2)nc1,inactive
20,CCc1nc2c(n1)c1c(non1O)c1c2no[n+]1[O-],active: 15.8 µM
21,O=[N+]([O-])c1cccc2n[nH]nc12,inactive
22,CC(=O)N1C2C3N(C(C)=O)C1C1N(C(C)=O)C(C(N1C(C)=O)N3C(C)=O)N2C(C)=O,inactive
23,COc1ccc(C2=NCC(CBr)S2)cc1 (stereo unspecified),inactive
24,O=C(OC1CN2CCC1CC2)c1cccc([N+](=O)[O-])c1 (stereo unspecified),inactive
25,CSc1ccc(Nc2c([N+](=O)[O-])cc([N+](=O)[O-])cc2[N+](=O)[O-])cc1,active: 17.8 µM

row,SMILES,Potency
1,CCOC(=O)c1ccc(NC(=O)C(C)(CCl)SC)cc1 (stereo unspecified),inactive
2,O=C(COc1ccccc1)OC1CN2CCC1CC2 (stereo unspecified),inactive
3,O=C(Nc1ccncc1[N+](=O)[O-])c1ccc([N+](=O)[O-])cc1[N+](=O)[O-],inactive
4,COP1(=S)c2c(C)nn(CCC#N)c2N=C(c2ccc(F)cc2)N1C (stereo unspecified),inactive
5,COC(=O)C1(C)COP(=O)(N2CCCC2)OC1 (stereo unspecified),inactive
6,Cc1cc(SC(NC=O)C(Cl)(Cl)Cl)ncn1 (stereo unspecified),inactive
7,CCOC(=O)Nc1cccc([As](=O)(O)O)c1,inactive
8,COP(=O)(OC)N1CC1c1ccccc1 (stereo unspecified),inactive
9,CCCCOc1ccc(C(=O)NCC2(N3CCCCC3)CCCCC2)cc1OC,inactive
10,Cc1cc(SC(NC(=O)c2ccccc2)C(Cl)(Cl)Cl)nc(C(C)C)n1 (stereo unspecified),inactive
11,CCOC(=O)Nc1ccc([As](=O)(O)O)c(O)c1,inactive
12,O=C(O)C(O)c1ccc(N(CCCl)CCCl)cc1 (stereo unspecified),inactive
13,CC1CCNP(=O)(N(CCCl)CCCl)O1 (stereo unspecified),inactive
14,CC(C)NC(=O)NP(=O)(Oc1ccccc1)Oc1ccccc1,inactive
15,O=C(OC1CN2CCC1CC2)c1cccc2[nH]cnc12 (stereo unspecified),inactive
16,CCN(CC)C(=S)SC(NC=O)C(Cl)(Cl)Cl (stereo unspecified),inactive
17,ClCCSc1nnc(-c2cccnc2)o1,inactive
18,COC(=O)C1(C)COP(=O)(N2CCCCCC2)OC1 (stereo unspecified),inactive
19,CC(C)c1ccc(OP(=O)(Nc2ccccn2)Oc2ccccc2F)cc1 (stereo unspecified),inactive
20,[N-]=[N+]=NC1CCCCC1NC(=O)c1cc([N+](=O)[O-])cc([N+](=O)[O-])c1 (stereo unspecified),inactive
21,Cc1ccc(OP(=O)(Nc2ccc([N+](=O)[O-])cn2)Oc2ccc(C)cc2)cc1,inactive
22,Cc1ccc2nc3c(c(C)c2c1)CC(C(Cl)Cl)S3 (stereo unspecified),inactive
23,C[As](=O)(O)c1cccc(C(=O)O)c1,inactive
24,O=[As](O)(c1ccc(O)cc1)c1ccccc1O,inactive
25,O=[N+]([O-])c1ccc(-c2cc([N+](=O)[O-])c(O)c([N+](=O)[O-])c2)cc1,inactive

row,SMILES,Potency
1,COc1cc(C(=O)NCC2(N3CCOCC3)CCCCC2)ccc1OCC(C)C,inactive
2,O=[N+]([O-])c1cc(Oc2ccc([N+](=O)[O-])cc2C(F)(F)F)cc([N+](=O)[O-])c1,inactive
3,O=P1(N(CCCl)CCCl)OCCCN1CCCl (stereo unspecified),inactive
4,O=P1(N(CCCl)CCCl)Nc2ccccc2N1,inactive
5,COc1cc(I)ccc1[As](=O)(O)O,inactive
6,Cc1c2c(nc3ccccc13)SC(C(Cl)Cl)C2 (stereo unspecified),inactive
7,O=C(OC1CN2CCC1CC2)C12CC3CC(CC(C3)C1)C2 (stereo unspecified),inactive
8,Cc1cc(=O)[nH]c(N[N+](=O)[O-])n1,inactive
9,CCOP(=O)(Nc1cccc2ccccc12)OCC,inactive
10,Nc1cccc2c([As](=O)(O)O)cccc12,inactive
11,Cc1ccc(NCCc2c([N+](=O)[O-])cc([N+](=O)[O-])cc2[N+](=O)[O-])cc1,inactive
12,CCCOP(=S)(Nc1nc(N)cc(=O)[nH]1)OCCC,inactive
13,Cc1cccc(OCC(=O)OC2CN3CCC2CC3)c1 (stereo unspecified),inactive
14,O=C(OC1CN2CCC1CC2)c1ccc(Cl)cc1 (stereo unspecified),inactive
15,O=[As](O)(O)c1cccnc1,inactive
16,COc1cc(C(=O)NCC2(N3CCOCC3)CCCCC2)cc(Cl)c1OC(C)C,inactive
17,CS(=O)(=O)c1ccc(Cl)c(NC(=O)COC(=O)C(O)(c2ccccc2)c2ccccc2)c1,inactive
18,N#CCCN(C(=O)COC(=O)C(O)(c1ccccc1)c1ccccc1)c1ccc(F)cc1,inactive
19,CCOP1(=S)c2c(C)nn(CCC#N)c2N=C(c2ccc(F)cc2)N1C (stereo unspecified),inactive
20,O=[N+]([O-])c1ccc2c(c1)nnn2O,inactive
21,CN(C)C(=O)c1cc([N+](=O)[O-])cc2c1-c1c(cc([N+](=O)[O-])cc1[N+](=O)[O-])C2=O,active: 31.6 µM
